The values that follow are results of earlier work, collected in patent US9695481B2, “Polynucleotides comprising a reporter sequence operatively linked to a regulatory element” (UNIVERSITEIT LEIDEN, priority 2010, dated 2017).

For data set [1], the system named is Salmonella. To be noted: cited from earlier work.
For data set [2] the following is noted: cited from earlier work.
The test system of data set [3] is mouse ES cell lines containing a DsRed fluorescent reporter. To be noted: cited from earlier work.

Where a name gives a salt, the structure may show the parent alone.

Turning to `[H]/N=C(/N)N/C(=N/[H])NCCc1ccccc1` [Phenformin HCl], in data set [1], the Ames test result is “Neg”.
Consider `Cc1noc(NS(=O)(=O)c2ccc(N)cc2)c1C` [Sulfisoxazole], for which the In vivo genotoxicity entry in data set [2] is listed as “Neg”.
Take Mitomycin C: the “mES DsRed reporters” value in data set [3] was “Pos”.
